Apparent affinities of Ab-14 variants for a coronavirus HR2 peptide

Binding partner: SARS-CoV-2 spike HR2 peptide, sequence PDVDLGDISGINAS.

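The parent was found by panning a naive human phage display library on the peptide. These sequences belong to a second round, designed from the earlier measurements on random variants of the parent. Group labels follow the data file (En: ensemble of fine-tuned language models; GP: Gaussian process model; HC: hill climbing; Gen: genetic algorithm; Gibbs: Gibbs sampling; a sequence that several methods proposed may carry one label only). In AlphaSeq, yeast of one mating type display the scFv and yeast of the other type display the target. The frequency of each diploid, read from paired DNA barcodes, reflects how well the two displayed proteins bind. Scores were corrected for input abundance and mapped to Kd with protein pairs of known affinity run in the same pool. The assay was run in six technical replicates.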

The variants keep the heavy chain, the linker and the frameworks of Ab-14 (scFv order VH, the linker GGGGSGGGGSGGGGS, VL).
VH: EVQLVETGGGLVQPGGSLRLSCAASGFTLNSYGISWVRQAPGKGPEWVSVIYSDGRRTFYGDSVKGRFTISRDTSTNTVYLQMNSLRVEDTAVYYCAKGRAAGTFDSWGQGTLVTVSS
VL: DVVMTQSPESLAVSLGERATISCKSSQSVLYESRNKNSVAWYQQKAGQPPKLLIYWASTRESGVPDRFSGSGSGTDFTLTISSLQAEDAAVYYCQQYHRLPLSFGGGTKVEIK

Each variant is given by its three light chain CDRs, as the data file delimits them; those of the parent are KSSQSVLYESRNKNSVA, WASTRES, QQYHRLPLS. Variants here have more than six changes. Values are log10 of the apparent Kd in nM; lower means stronger binding. Replicates are averaged; those with no signal do not enter the mean. "nd" means that the variant was in the library but no mating with the target was seen in any replicate; the authors take this as a sign of poor binding, and no number exists. Empty control strains, which show no peptide, gave a signal in 4% of pairings with all light chain designs; the median was 2.64 and 95% of these signals were weaker than 1.59. No background was subtracted. The control count says in how many pairings with the empty strains this scFv gave a signal.

For KLSMVTGHMSLAKNNVA | EMVTREK | QQYNRLPLS [En_Gen], the assay gave 0.63 (6 of 6 replicates; controls 1 of 18). For KISQTVLYQGRLMNAVA | QMSTREN | QQYDRLPLS [En_HC], the assay gave 0.64 (6 of 6 replicates; controls 0 of 18). Variant IISGSMLMESKHKNSVA | NAETREY | QHYHRLPLS [En_HC] gave 0.78 (6 of 6 replicates; controls 1 of 18). With KLDQSVMLESRNKNSVA | EASTRMS | QDYHRLPLS [GP_Gibbs] the result was 0.75 (6 of 6 replicates; controls 1 of 18). With VLSQSWLYEDRPKNSVA | NASTRMQ | QQYHRLPLS [GP_Gibbs] the result was -0.20 (6 of 6 replicates; controls 2 of 18). Variant IVSQSVLGGSRNLNSVA | QTSERNY | QQYDRLPLS [En_HC] gave 1.24 (6 of 6 replicates; controls 0 of 18).

With MMSQVTGMGQRHRNNVA | QTSTRED | QQYDRLPLV [En_Gen] the result was 1.44 (6 of 6 replicates; controls 0 of 18). With AVSIEHMENTAIWNAIA | DTSLRNN | QQYYQLPLS [En_Gibbs] the result was 3.18 (2 of 6 replicates; controls 0 of 18). With MISQISSMGQFAKNSVA | QASLRNN | QQYDRLPLI [En_Gen] the result was 0.75 (6 of 6 replicates; controls 0 of 18). For QYSMNLEIYDQEQWNVA | HGEMRTE | QQYHKLPLS [En_Gibbs], the assay gave 0.66 (6 of 6 replicates; controls 1 of 18). With KMSQSNDYEERNDNAVA | NASQREE | QQYHRLPLS [GP_Gibbs] the result was 0.11 (6 of 6 replicates; controls 0 of 18). For VMFMGLYWNNDETYAIA | DVTMREK | QQYHRLPLM [En_Gibbs], the assay gave nd (0 of 6 replicates; controls 0 of 18).

Variant KLSMVTGHMSVSKNNVA | EMETRVN | QQYDRLPLS [En_Gen] gave 0.41 (6 of 6 replicates; controls 1 of 18). Variant KVHAYTQGVEQDMQNIA | ETSYASR | QQYFRLPLS [En_Gibbs] gave 1.49 (6 of 6 replicates; controls 0 of 18). Variant NISYLQGLSTNSVNNVA | QASVRAP | QYYQRLPLC [En_Gibbs] gave -0.08 (6 of 6 replicates; controls 2 of 18). With MVSQLMLWGMHVKNSIA | EAVTRIN | QQYDRLPLF [En_Gen] the result was 1.64 (6 of 6 replicates; controls 1 of 18). Variant HLGYATMLEEYVRNSVA | NNSTREK | QQYDRLPLS [En_Gen] gave 3.84 (4 of 6 replicates; controls 1 of 18). For KYSQLNLYEQRNFNSVA | NASYRES | QQYHRLPLS [GP_Gibbs], the assay gave 0.02 (6 of 6 replicates; controls 1 of 18).

Variant IVSQLMLWGMHAKNSIA | EGQTRLN | QQYDRLPLF [En_Gen] gave nd (0 of 6 replicates; controls 0 of 18). For KLLQEVTGHSRNRNSVA | HNSTRED | QQYDRLPLT [En_HC], the assay gave nd (0 of 6 replicates; controls 0 of 18). For KLWGSLLAGQSELQSVA | AAEVLRQ | QQYNMLPLS [En_Gibbs], the assay gave 1.34 (6 of 6 replicates; controls 1 of 18). Variant KISQMVTYESTWHNAIA | QMSEREE | QQYHRLPLS [En_HC] showed 0.93 (4 of 6 replicates; controls 0 of 18). For KQSQAVPYEQRNKNNVA | EGSTRES | QQYHRLPLS [GP_Gibbs], the assay gave -0.55 (6 of 6 replicates; controls 0 of 18). Variant KMDQWVDYGDRWKNSVA | NASTRES | QQYHRLPLS [GP_Gibbs] gave 0.61 (6 of 6 replicates; controls 0 of 18).

Variant HISHMWFLESKNKNNVA | EESTRED | QSYFRLPLS [En_HC] showed 1.11 (6 of 6 replicates; controls 1 of 18). Variant NLQNIGMENSVWKNAIA | DVNIKES | QQYWRLPLL [En_Gibbs] showed 0.47 (6 of 6 replicates; controls 0 of 18). Variant KVEMGVDDLSRNDNSVA | WASTRES | QQYHRLPLS [GP_Gibbs] gave 1.07 (6 of 6 replicates; controls 1 of 18). With HMSMLTLGGVRHKNSVA | QMTTREN | QQYDHLPLS [En_Gen] the result was 1.59 (5 of 6 replicates; controls 0 of 18). For TISQSWNMTSRGKNSVA | QAEMREE | QQYDRLPLS [En_HC], the assay gave 2.20 (6 of 6 replicates; controls 1 of 18). Variant HISQSVEGESSNKNSVA | SASTREQ | QQYHRLPLS [GP_Gibbs] gave -0.14 (6 of 6 replicates; controls 0 of 18).

Variant MLGDTVMQGMYSRNSVA | QESTRAE | QQYHHLPLS [En_HC] showed -0.10 (6 of 6 replicates; controls 1 of 18). Variant TIDDEMPNHGFKWNSIA | GVATVLQ | QQYDRLPLS [En_Gibbs] gave 1.31 (6 of 6 replicates; controls 3 of 18). Variant TLSGVMDMTSRNVNSVA | DLTTRGN | QQYHRLPLS [En_HC] showed 0.33 (6 of 6 replicates; controls 0 of 18). Variant WLAMEEQPGDRGYSSVA | DTDARMA | QQYFRLPLS [En_Gibbs] showed 0.27 (6 of 6 replicates; controls 1 of 18). Variant YLSMMEQHLGDMMHNVA | DANVAKM | QDYFRLPLM [En_Gibbs] showed nd (0 of 6 replicates; controls 0 of 18). Variant KISSLTMYESVEKNNIA | EMTTRPE | QSYHRLPLS [En_HC] gave 1.13 (6 of 6 replicates; controls 0 of 18).

Variant KISQLVNFEGKNKNSVA | QMSTREE | QQYDRLPLS [En_HC] gave 0.28 (6 of 6 replicates; controls 1 of 18). With ILSDSVLTLSRNKHSVA | DNSTRES | QQYDRLPLS [En_HC] the result was 0.83 (5 of 6 replicates; controls 0 of 18). For IFSQSVLMGNLTKNSVA | QTSTRES | QQYHRLPLI [En_HC], the assay gave 1.97 (6 of 6 replicates; controls 1 of 18). Variant KLQSITGTEKVRGNNVA | EMETREN | QQYNRLPLS [En_Gen] showed 0.30 (6 of 6 replicates; controls 0 of 18). Variant KLSGLGLYGQRNKNSVA | EASYRED | QQYHRLPLS [GP_Gibbs] gave -0.47 (6 of 6 replicates; controls 0 of 18). Variant KLKQDPVLKTNIGNNVA | EHTEVFQ | QQYAHLPLQ [En_Gibbs] gave 2.64 (5 of 6 replicates; controls 1 of 18).

Variant NSSGQGMFESRNKNSVA | HASTREE | QQYERLPLS [En_HC] gave 0.11 (6 of 6 replicates; controls 1 of 18). With KMRVSLLQGIYRQDSIA | STDIRVL | QQYHHLPLS [En_Gibbs] the result was 1.04 (6 of 6 replicates; controls 0 of 18). For MLSQMWALGMKVSNSVA | QATMRFN | QQYYRLPLI [En_Gen], the assay gave nd (0 of 6 replicates; controls 0 of 18). For HIQEVDNQVENQNGNVA | DANEYLA | QQYFQLPIS [En_Gibbs], the assay gave 1.35 (5 of 6 replicates; controls 1 of 18). Variant MLYDSVLTLSRNKNSVA | DNSTRES | QQYDRLPLS [En_HC] gave nd (0 of 6 replicates; controls 0 of 18). For MISQLYNMGQFAINSVA | QASERNT | QQYDRLPLI [En_Gen], the assay gave 2.61 (1 of 6 replicates; controls 1 of 18).

The first 3 variants above that were never detected:

CDR-L1,CDR-L2,CDR-L3,group,mean log10 Kd (nM),replicates with signal,control signals
VMFMGLYWNNDETYAIA,DVTMREK,QQYHRLPLM,En_Gibbs,nd,0/6,0/18
IVSQLMLWGMHAKNSIA,EGQTRLN,QQYDRLPLF,En_Gen,nd,0/6,0/18
KLLQEVTGHSRNRNSVA,HNSTRED,QQYDRLPLT,En_HC,nd,0/6,0/18

Of ten entries with the parent sequence, four were seen in most replicates (averages 0.34 to 2.37), three in one and three in none, so single entries are noisy. The authors' rule: three or more of the six replicates give a measured affinity, fewer mean a poor binder. The range of this assay differs from that of the first round, and the authors advise against merging the two.

From the AlphaSeq antibody data of Li et al. 2023 (doi:10.1038/s41467-023-39022-2), copy in the FLAb collection.